From ChEMBL document CHEMBL3085623, “Oridonin ring A-based diverse constructions of enone functionality: identification of novel dienone analogues effective for highly aggressive breast cancer by inducing apoptosis” (J Med Chem, 2013) come the findings set out here.

This assay has as its system NCI/ADR-RES. Description: Growth inhibition of human MCF7/ADR cells after 48 hrs. It counts as functional, cell-based.

Regarding `C=C1C(=O)[C@@]23[C@@H]4OC(C)(C)O[C@]25OC[C@]2(C=CC(=O)C(C)(C)[C@H]2[C@@H]5O)[C@@H]3CC[C@@H]14`, the “growth inhibition (GI)” value is “Dose-dependent effect”.

In the case of `C=C1C(=O)[C@@]23[C@@H]4OC(C)(C)O[C@]25OC[C@]2(C(=O)C=CC(C)(C)[C@H]2[C@@H]5O)[C@@H]3CC[C@@H]14`, the “growth inhibition (GI)” value was “Dose-dependent effect”.

In the case of `C=C1C(=O)[C@@]23[C@@H]4OC(C)(C)O[C@]25OC[C@]2(C(=O)C(C=O)=CC(C)(C)[C@H]2[C@@H]5O)[C@@H]3CC[C@@H]14`, the “growth inhibition (GI)” value was “Dose-dependent effect”.

As for `C=C1C(=O)[C@]23[C@H](O)[C@H]1CC[C@H]2[C@@]12CO[C@]3(O)[C@@H](O)[C@@H]1C(C)(C)C=CC2=O`, the “growth inhibition (GI)” value is “Dose-dependent effect”.
